Measurements from paper PMC5519068 (PLoS ONE, 2017).

System: patient-derived Flt3-ITD+ AML bone marrow cells
Assay: Apoptosis by flow cytometry for cell-surface phosphatidylserine in primary AML samples
Format: cell-based, human

COc1cc2c(N3CCN(C(=O)Nc4ccc(OC(C)C)cc4)CC3)ncnc2cc1OCCCN1CCCCC1 [Tandutinib, reference compound]
Response of patient samples: unresponsive
